PMC8088467, “Tetrahedral DNA nanostructure improves transport efficiency and anti‐fungal effect of histatin 5 against Candida albicans” (Cell Proliferation, 2021)

Test: Serum stability test (MALDI‐TOF MS degradation profile of His‐5)
Assay type: in vitro ADME
Settings: 10% foetal calf serum medium, peak area m/z 2900‐3000 / total area, His‐5:TDN ratio not given
Procedure: To verify stability of TDN/[…] complex in the serum medium, matrix-assisted laser desorption ionization time of flight mass spectrometry (MALDI-TOF MS) was utilized to assess the degradation profile of […]. […] and TDN/[…] incubated in the 10% foetal calf serum medium for 6h were measured by MALDI-TOF MS. And the proportions of peak areas (mass range from 2900 to 3000) to the total area in spectrum were calculated as the proportions of […] in the medium. The mass percentage of […] was calculated with following equation: […]5%=[…]×100% Initial […] and TDN/[…] in the 10% foetal calf serum medium were measured as control groups. And the proportions were compared between the TDN/[…] groups and […] groups.

Histatin 5
Mass percentage of Histatin 5 [2900,3000], after degradation (incubated 6h): 9.14% | Mass percentage of Histatin 5 [2900,3000], initial (initial sample (control, before incubation)): 35.19%
